Target: T1, RXRγ (Mus musculus, UniProt P28705)
T1 construct: expressed in transfected cells; host or cells: COS-1
T1 sequence (P28705 1-463): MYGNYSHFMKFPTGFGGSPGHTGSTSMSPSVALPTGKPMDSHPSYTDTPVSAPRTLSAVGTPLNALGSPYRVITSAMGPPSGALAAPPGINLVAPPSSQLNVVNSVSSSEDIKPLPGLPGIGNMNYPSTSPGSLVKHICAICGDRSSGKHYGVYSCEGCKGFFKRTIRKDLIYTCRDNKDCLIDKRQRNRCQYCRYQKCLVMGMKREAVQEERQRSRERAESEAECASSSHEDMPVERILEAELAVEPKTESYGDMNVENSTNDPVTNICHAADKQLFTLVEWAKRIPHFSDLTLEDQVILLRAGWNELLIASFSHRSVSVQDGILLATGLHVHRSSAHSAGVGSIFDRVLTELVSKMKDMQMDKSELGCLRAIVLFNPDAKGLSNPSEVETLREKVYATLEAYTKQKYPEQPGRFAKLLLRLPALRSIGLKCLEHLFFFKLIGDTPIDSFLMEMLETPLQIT
Experiment: D2R promoter CAT reporter assay in COS-1 cells cotransfected with RXRγ expression vector
Format: cell-based
Settings: 0.1 μM
Text: Expression Vectors. The C1 reporter construct was obtained by subcloning the HindIII fragment spanning the 5 ′ promoter region of the D2R gene (positions −495 to +273), in the reporter plasmid pBLCAT3 (Luckow, B. & Schütz, G., Nucleic Acids Res. 15:5490 (1987)). The C2 reporter plasmid was constructed by subcloning the SmaI-XhoI fragment (positions −76 to +273) in the same position. The C3 and C4 reporters were generated by cloning a 29 bp synthetic oligonucleotide corresponding, respectively, to the natural rat D2R RARE sequence and the mutated one into pBLCAT2 (Luckow, B. & Schütz, G., Nucleic Acids Res. 15:5490 (1987)). The polylinker in pBLCAT2 is located upstream of the herpes simplex virus 1 (HSV1) thymidine kinase (TK) promoter, from position −105 to +51. To measure transfection efficiency the plasmid pCH110 carrying the β-galactosidase gene (Pharmacia) was used. Mouse […], as well as mouse RXRα, β and γ expression vectors were derived from the parental pSG5 vector (Green, S., et al., Nucleic Acids Res. 16:369 (1988)).
COS-1 cells were used for transient transfection assays. Cells were grown in Dulbecco's modified Eagle's medium supplemented with 5% fetal calf serum.
Several hours before transfection, the medium was replaced with fresh medium containing 5% charcoal-treated FCS. […]

CC1=C(/C=C/C(C)=C\C=C\C(C)=C\C(=O)O)C(C)(C)CCC1 [9-cis-RA, 9-cis RA]
increase in CAT activity (C1 reporter + RXRγ): 9 fold | increase in CAT activity (C2 reporter + RXRγ): 21 fold
